High-throughput results as filed in PubChem BioAssay.
Epigenetic derep: regulators of epigenetic silencing causing reporter derepression in mouse cells. AID 1865. hit rate 0.2% among 280,000. murine LDR cells, GFP reporter derepression, 30 h. Potency, µM (series often up to 53.9 µM), for inactives: at the top dose GFP activation, hits mostly activators; also: potency is read from the fitted curve at half-maximal effect; % of control where 0% means no effect; nearly all actives have a fitted effect of over 60% in size
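Murine LDR cells bearing a silenced CMV-driven GFP reporter were exposed to compound for 30 h at 37 C. After PBS washes, GFP-positive cells (20-120 um objects) counted by laser-scanning microplate cytometry.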
p53 reactivator: re-activators of mutant p53. Potency, µM (titrated, usually from 92.2 µM), for inactives: at the top dose activity change, positive = activation, actives largely listed as activators. H1299 p53-A138V BP100-luciferase reporter, luminescence, 24 h. hit rate 0.063% among 320,000; also: potency is read from the fitted curve at half-maximal effect; % of control where 0% means no effect; nearly all actives have a fitted effect of over 45% in size
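p53-null H1299 cells stably carrying temperature-sensitive p53-A138V and a BP100-luciferase reporter were pinned with compounds (4-point, 1:5 series) and held 24 hrs at 37 deg C. Luminescence was read 10 min after detection reagent.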
uPA surface inh: blocks generation of uPA at the cell surface; cell surface uPA generation assay, qHTS; Potency, µM (top dose mostly 38.3 µM), inactives show at the top dose activity change, negative = inhibition, most hits filed as inhibitors; hit rate 0.31% among 330,000; AID 540303; active = well fitted inhibition curve with a large enough effect; inconclusive = small, poorly fitted or top-dose-only effect; inactive = no such curve, though single readings can be large or run the other way; tested in mouse RAW 264.7 cells; also: potency is read from the fitted curve at half-maximal effect; % is scaled to controls: 0 for no effect and ±100 for the full control effect; nearly all actives have a fitted effect of over 55% in size
PINK1 expr mod: changes PINK1 expression | PINK1 immunofluorescence, high-content cytometry, 24 h | Potency, µM (series often up to 76.6 µM), inactives show at the top dose activation (PINK1 increase), most hits filed as activators | hit rate 0.2% among 410,000 | AID 624263; active = well fitted activation curve with a large enough effect; inconclusive = small, poorly fitted or top-dose-only effect; cell line not stated here; also: potency is read from the fitted curve at half-maximal effect; % of control where 0% means no effect; nearly all actives have a fitted effect of over 65% in size
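Compound titrations (5 concentrations, 24 h) on a stable cell line; DMSO and CCCP controls. Endpoint: fixed-cell PINK1 immunofluorescence with mitochondrial, cell and nuclear markers, scanned by microplate cytometer.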
IL2 activator: activators of IL-2; activation, % (series mostly up to about 46 µM); hit rate 0.065% among 360,000; IL-2 activation reporter assay, cell-based qHTS; stimulated with anti-CD3/CD4/CD28 beads; in transgenic mouse T cells; in the data active = activation above about 50%; inconclusive = mostly about 30% to 49%; also: 0% is about no effect
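Unstimulated transgenic mouse T cells, 750 per well, received compound and, after 60 minutes, anti-CD3/anti-CD4 bead plus anti-CD28 stimulation. EGFP and DsRed were quantified after 18 hours.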
miR-21 reporter: miR-21 reporter, rising signal; HeLa miR-21 FLuc reporter, luciferase, 48 h; Potency, µM (doses to about 38.3 µM), for inactives: at the highest dose reporter change, positive = more light; 340,000 tested, under 10 active; AID 2288; active = well fitted rising curve with a large enough effect; inconclusive = small, poorly fitted or top-dose-only effect; inactive = no such curve, though single readings can be large or run the other way;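 further: % of control where 0% means no effect; miR-21 action dims this reporter so a rising signal means less miR-21 action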
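Using DMEM plus 10% FBS, HeLa miR-21-FLuc cells are incubated with test compounds (final up to about 40uM) for 48 hours; firefly luciferase signal is then imaged following reagent-mediated lysis.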
* marks the source's active call; other numbers are inactive results; ? = inconclusive; / = not tested or not shown; ! = not active in a repeat. Only some compounds are listed: those with a hit (about 0.62% of all), similar ones and a draw of the others. Unless noted, calls follow the shape of the dose curve; as a rule, active = well fitted curve in the direction sought with a large enough effect; inconclusive = small, poorly fitted or top-dose-only effect, or another doubt; inactive = no such curve, though single readings can be large; an effect the other way counts as inactive or inconclusive.

Below each SMILES – miR-21 reporter | IL2 activator | uPA surface inh | p53 reactivator | Epigenetic derep | PINK1 expr mod
- COc1ccc2o/c(=N/NC(=O)c3cccs3)c(C(N)=O)cc2c1
 : -38% | 0 | -2% | ? | 18µM* | 6%
- CCCOc1ccc(C2C(C(=O)c3cc4ccccc4o3)=C(O)C(=O)N2c2cc(C)on2)cc1OC (stereo not drawn)
 : -6% | 2 | 1% | -5% | / | 0%
- CCCOc1ccc(C2C(C(=O)c3cc4ccccc4o3)=C(O)C(=O)N2c2cc(C)on2)cc1 (stereo not drawn)
 : -9% | -3 | 9% | 1% | / | 25µM*
- CCOC(=O)c1[nH]c2c(c1C)C(=O)CC(c1ccc(F)cc1)C2 (stereo not drawn)
 : 17% | -2 | 1.3µM* | 4% | -1% | 12%
- COCCOC(=O)c1[nH]c2c(c1C)C(=O)CC(c1cccs1)C2 (stereo not drawn)
 : 23% | 0 | 1µM* | 11% | -3% | 9%
- Cc1c(C(=O)OCC2CCCCC2)[nH]c2c1C(=O)CC(c1ccc(F)cc1)C2 (stereo not drawn)
 : 0% | / | / | / | 0% | 2%
- COc1cc(=O)n2c(c1C(=O)NCc1nonc1C)CCN(Cc1c[nH]c3ccccc13)CC2
 : / | / | / | / | / | 1%
- Oc1cc(-c2nc3ccccc3s2)cc2c1OCCN(Cc1cccn1-c1ncccn1)C2
 : / | / | / | / | / | 4%
- COCCN1CCN(C(=O)c2cnn(-c3ncc4c(n3)-c3ccc(OC)cc3CC4)c2C2CC2)CC1
 : / | / | / | / | / | 0%
- Cc1cccc(N(Cc2cc(=O)[nH]c3ccccc23)C(=O)CCl)c1
 : ? | -5 | 7.1µM* | -15% | / | 1%
- COc1ccc(-c2csc(Nc3ncccc3C)n2)cc1
 : -11% | 5 | 1% | 45µM* | 0% | 1%
- COc1ccc(-c2csc(Nc3ncccc3C)n2)cc1OC
 : -48% | 0 | -7% | ? | -1% | 6%
- COc1cc(CN2CCOc3ccc(C(O)c4cccnc4)cc3C2)cc(OC)c1 (stereo not drawn)
 : / | / | / | / | / | 0%
- CCCCCNC1=CC(=O)CC(c2ccccc2)C1 (stereo not drawn)
 : 10% | 0 | -17% | -4% | -1% | 11%
- CCCCCCCNC1=CC(=O)CC(c2ccccc2)C1 (stereo not drawn)
 : 26% | -3 | 8.9µM* | ? | 0% | 40µM*
- c1ccc(-n2ncc3c(N4CCCCC4)ncnc32)cc1
 : ? | -3 | 1.6µM* | -8% | 1% | 2%
- Clc1ccc(-n2ncc3c(NCC4CCCO4)ncnc32)cc1 (stereo not drawn)
 : -59% | -2 | 10µM* | ? | 1% | 6%
- CC1CCCN(c2ncnc3c2cnn3-c2ccc(Cl)cc2)C1 (stereo not drawn)
 : 14% | -2 | 2.2µM* | -9% | 3% | 7%
- Cc1c(C(=O)NCCCc2ccncc2)cnn1-c1ncc2c(n1)-c1ccccc1CC2
 : / | / | / | / | / | 0%
- COc1cccc(C(=O)NC(C)c2nnc3n2CCN(CC=C(C)C)CC3)c1 (stereo not drawn)
 : / | / | / | / | / | 0%
- COc1ccccc1C1CN(Cc2cccc(O)c2)Cc2ccccc2O1 (stereo not drawn)
 : / | / | / | / | / | 7%
- COc1ccccc1-c1cc2c(c(OC)c1)OCCN(C(=O)Cn1nc(-c3ccccc3)c3ccccc3c1=O)C2
 : / | / | / | / | / | 0%
- CSc1ccc(C(=O)N2CCc3c(cnc(C)c3CNC(=O)c3cncs3)C2)cc1
 : / | / | / | / | / | 0%
- CN(CC(=O)Nc1ccc(Cl)c(C(F)(F)F)c1)C(=O)CCCNC(=O)c1ccc(Cl)cc1
 : / | 0 | 8.9µM* | ? | / | 3%
- Cc1oc(-c2ccccc2NC(=O)c2ccsc2)nc1CN(C)Cc1ccc2c(c1)CCCN2C
 : / | / | / | / | / | 2%
- CCOC(=O)/C=c1\s/c(=C\c2ccccc2C)c(=O)n1CC(=O)NCc1ccc2c(c1)OCO2
 : 19% | 7 | ? | 6% | ? | ?
- CCOC(=O)/C=c1\s/c(=C\c2ccc3cc(OC)ccc3c2)c(=O)n1CC(=O)NCc1ccc2c(c1)OCO2
 : 4% | -2 | / | 2% | 7.9µM* | 20µM*
- C=CC(=O)Nc1cccc(N(C)c2ccnc(Nc3ccc(N4CCN(C)CC4)cc3)n2)c1
 : / | -1 | 10µM* | / | / | -2%
- C=CC(=O)Nc1cccc(Oc2ccnc(Nc3ccc(N4CCN(C)CC4)cc3)n2)c1
 : / | -1 | ? | / | / | -1%
- CCOc1cc(/C=N/NC(=O)c2ccccc2OCc2ccc(F)cc2)ccc1O
 : / | 0 | -16% | 3% | / | 2%

Below each SMILES – miR-21 reporter | IL2 activator | uPA surface inh | p53 reactivator | Epigenetic derep | PINK1 expr mod
- CCOc1cc(/C=N/NC(=O)c2ccccc2-n2cccc2)ccc1O
 : / | 0 | 11µM* | -5% | / | 12%
- COc1cc(=O)n2c(c1C(=O)N(C)Cc1nonc1C)CCN(Cc1cccc3ccccc13)CC2
 : / | / | / | / | / | -1%
- Oc1ccc(/C=C/c2cc(O)cc(O)c2)cc1
 : 6% | 0 | 6.3µM* | ? | 1% | -1%
- COc1ccc(NC(=O)CSc2nc(N)c(C#N)cc2C#N)cc1
 : -3% | 0 | 8% | 0% | -1% | ?
- COc1ccc2nc(SCC(=O)Nc3ccc4sc(C)nc4c3)c(C#N)cc2c1
 : -10% | -1 | 5% | 13% | 3.5µM* | 16%
- COc1cc(NC(=O)C(C)C)ccc1NC(=O)c1cc2ccccc2o1
 : -48% | 0 | 14µM* | / | / | 2%
- CCCC(=O)Nc1ccc(NC(=O)c2ccco2)c(OC)c1
 : -57% | -3 | -5% | ? | -9% | 3.5µM*
- CC(NC(=O)c1cc2ccccc2o1)c1ccccc1 (stereo not drawn)
 : 0% | 0 | 6% | 0% | 16µM*! | 0%
- COc1cc(NC(=S)NC(=O)C(C)C)ccc1NC(=O)c1cc2ccccc2o1
 : -4% | 1 | -4% | 0% | 0% | 2%
- CC(NC(=O)c1cc2ccccc2o1)C(=O)O (stereo not drawn)
 : -2% | 0 | 4% | 1% | 1% | -1%
- COc1cc(CNc2nc(C)c(-c3ccn(C4Cc5ccccc5C4)n3)s2)cc2c1OCO2
 : / | / | / | / | / | 6%
- CC(C)c1c(C(=O)NC(c2cccnc2)C(F)(F)F)cnn1-c1nccc(-c2cccs2)n1 (stereo not drawn)
 : / | / | / | / | / | -1%
- N/C(=N\OC(=O)c1ccc(Cl)cc1Cl)c1ccccn1
 : ? | 2 | 2.8µM* | -9% | 0% | 0%
- Cc1ccc(C(=O)O/N=C(\N)c2ccccn2)c(Cl)c1
 : ? | 0 | ? | -10% | / | -1%
- N#CC(C#N)=Cc1cnc(N2CCN(c3ccccc3)CC2)s1
 : -10% | ? | 1% | 3% | / | 32µM*
- O=Cc1cnc(N2CCN(c3ccccc3)CC2)s1
 : -27% | 1 | 2% | 6% | 7% | 0%
- O=C(NCC1Cc2cccc(-c3nccs3)c2O1)c1ccnc(Cl)c1 (stereo not drawn)
 : / | / | / | / | / | 1%

Record cards, from the list above. Order of values: miR-21 reporter | IL2 activator | uPA surface inh | p53 reactivator | Epigenetic derep | PINK1 expr mod
Shown for COc1ccc2nc(SCC(=O)Nc3ccc4sc(C)nc4c3)c(C#N)cc2c1 → -10% | -1 | 5% | 13% | 3.5µM* | 16%
Shown for Cc1ccc(C(=O)O/N=C(\N)c2ccccn2)c(Cl)c1 → ? | 0 | ? | -10% | / | -1%
Shown for COc1ccc(NC(=O)CSc2nc(N)c(C#N)cc2C#N)cc1 → -3% | 0 | 8% | 0% | -1% | ?

Structures above with a CF3 group:
Below each SMILES – miR-21 reporter | IL2 activator | uPA surface inh | p53 reactivator | Epigenetic derep | PINK1 expr mod
- CN(CC(=O)Nc1ccc(Cl)c(C(F)(F)F)c1)C(=O)CCCNC(=O)c1ccc(Cl)cc1
 : / | 0 | 8.9µM* | ? | / | 3%
- CC(C)c1c(C(=O)NC(c2cccnc2)C(F)(F)F)cnn1-c1nccc(-c2cccs2)n1 (stereo not drawn)
 : / | / | / | / | / | -1%
